The source of these data is PubChem BioAssay AID2435 (The Scripps Research Institute Molecular Screening Center, 2010).

Sequences of proteins named here, by UniProt entry; tags and fusion partners are left off.
UniProt P30559, whole entry: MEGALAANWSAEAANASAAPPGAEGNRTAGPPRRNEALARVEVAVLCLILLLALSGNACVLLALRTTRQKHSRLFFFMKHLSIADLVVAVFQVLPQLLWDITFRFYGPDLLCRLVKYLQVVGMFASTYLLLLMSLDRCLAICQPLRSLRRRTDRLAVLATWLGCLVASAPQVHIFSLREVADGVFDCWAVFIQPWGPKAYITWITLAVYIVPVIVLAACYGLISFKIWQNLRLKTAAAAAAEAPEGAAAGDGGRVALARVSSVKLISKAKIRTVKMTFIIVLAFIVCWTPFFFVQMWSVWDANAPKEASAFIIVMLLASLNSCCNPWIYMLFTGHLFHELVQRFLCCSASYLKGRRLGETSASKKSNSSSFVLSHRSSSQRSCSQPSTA

Each structure is given as a SMILES string. The entries are a selection whose mix differs from that of the whole data set. Active and inactive are the calls of the source.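 Rule for the calls: active = activation above the mean of all tested compounds plus 3 SD, cutoff set per screening run (cut at about 20% in these data); inactive = the rest.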

In this assay the target is Oxytocin receptor (Homo sapiens) (UniProt P30559). The assay is described as follows: oxytocin receptor activation by calcium flux – fluorescence, CHO-OTR cells, Fluo-8 calcium, primary screen (AID 2435).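 Note: peak over basal fluorescence ratio from a 100 s FLIPR kinetic read.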 Conditions: Fluo-8 calcium fluorescence, at 3 µM, hits give high values, normalized: DMSO 0%, oxytocin 100%. A general note: A change in cytosolic calcium serves as a functional read-out for many receptors and channels.
`CCC(=O)N(c1ccccc1)C1(COC)CCN(CCc2cccs2)CC1`: the activation was inactive: -0.24%. Next, `CCC(=O)N(c1ccccc1)C1(COC)CCN(CCn2nnn(CC)c2=O)CC1`: inactive: 0.9%.
